Experimental data from US8648092B2, “Imidazo[1,2-a]pyridine derivatives: preparation and pharmaceutical applications” (MEI Pharma, priority 2005, dated 2014).

Amino acid sequences for entries named in this document (tags omitted).
UniProt Q13547, whole entry: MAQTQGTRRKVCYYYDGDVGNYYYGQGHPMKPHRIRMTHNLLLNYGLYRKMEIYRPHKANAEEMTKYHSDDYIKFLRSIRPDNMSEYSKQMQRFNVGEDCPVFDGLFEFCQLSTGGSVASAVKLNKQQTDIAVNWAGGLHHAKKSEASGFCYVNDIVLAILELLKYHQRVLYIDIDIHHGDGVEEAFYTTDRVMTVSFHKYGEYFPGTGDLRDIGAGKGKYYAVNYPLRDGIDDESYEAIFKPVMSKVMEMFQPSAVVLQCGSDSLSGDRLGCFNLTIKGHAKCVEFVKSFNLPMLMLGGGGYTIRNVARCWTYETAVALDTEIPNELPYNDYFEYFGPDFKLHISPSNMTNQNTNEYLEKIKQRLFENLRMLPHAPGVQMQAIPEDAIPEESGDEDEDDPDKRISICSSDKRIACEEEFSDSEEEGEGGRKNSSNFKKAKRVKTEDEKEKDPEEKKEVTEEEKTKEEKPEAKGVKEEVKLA

Key:
[1] = target: HDAC1 enzyme (recombinant GST-HDAC1) (Homo sapiens (Human), UniProt Q13547); assay: In vitro HDAC assay for determination of IC50 values (BIOMOL fluorescent-based HDAC activity assay); conditions: read-out: IC50 (HDAC 1), Flur de lys substrate, 2 h room temperature
Colo205 cells = assay: Cell-based proliferation assay for determination of GI50 values (CyQUANT); conditions: read-out: GI50 (Colo205), 96 h treatment

CCN(CC)CCc1c(-c2ccccc2)nc2cc(/C=C/C(=O)NO)ccn12
IC50 [1]: 260 nM
GI50 (Colo205 cells): 1600 nM
